Assay results taken from BindingDB's records for US9096606.

Chains of the proteins cited; added tags and fusions are not shown.
UniProt P41145, whole entry: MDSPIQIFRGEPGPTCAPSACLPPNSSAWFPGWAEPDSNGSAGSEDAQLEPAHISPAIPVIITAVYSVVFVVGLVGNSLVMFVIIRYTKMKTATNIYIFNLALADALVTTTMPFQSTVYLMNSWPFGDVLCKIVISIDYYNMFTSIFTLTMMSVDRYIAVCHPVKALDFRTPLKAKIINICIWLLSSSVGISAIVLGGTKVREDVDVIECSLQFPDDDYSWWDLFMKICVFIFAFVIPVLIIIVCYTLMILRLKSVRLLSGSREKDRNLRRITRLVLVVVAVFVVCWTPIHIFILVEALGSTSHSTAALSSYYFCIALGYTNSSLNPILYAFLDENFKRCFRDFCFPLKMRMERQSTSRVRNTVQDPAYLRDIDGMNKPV
UniProt P35372, whole entry: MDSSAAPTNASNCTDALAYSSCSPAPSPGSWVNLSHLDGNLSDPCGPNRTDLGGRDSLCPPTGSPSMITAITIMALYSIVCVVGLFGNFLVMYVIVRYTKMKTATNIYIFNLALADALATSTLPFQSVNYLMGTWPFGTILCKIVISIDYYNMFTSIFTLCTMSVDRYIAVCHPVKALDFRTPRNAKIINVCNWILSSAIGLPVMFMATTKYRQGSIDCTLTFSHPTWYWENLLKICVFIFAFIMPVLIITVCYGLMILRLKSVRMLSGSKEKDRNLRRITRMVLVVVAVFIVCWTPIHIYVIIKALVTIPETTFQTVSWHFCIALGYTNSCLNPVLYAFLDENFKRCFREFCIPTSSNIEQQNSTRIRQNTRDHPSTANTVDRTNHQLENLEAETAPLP
UniProt P41143, whole entry: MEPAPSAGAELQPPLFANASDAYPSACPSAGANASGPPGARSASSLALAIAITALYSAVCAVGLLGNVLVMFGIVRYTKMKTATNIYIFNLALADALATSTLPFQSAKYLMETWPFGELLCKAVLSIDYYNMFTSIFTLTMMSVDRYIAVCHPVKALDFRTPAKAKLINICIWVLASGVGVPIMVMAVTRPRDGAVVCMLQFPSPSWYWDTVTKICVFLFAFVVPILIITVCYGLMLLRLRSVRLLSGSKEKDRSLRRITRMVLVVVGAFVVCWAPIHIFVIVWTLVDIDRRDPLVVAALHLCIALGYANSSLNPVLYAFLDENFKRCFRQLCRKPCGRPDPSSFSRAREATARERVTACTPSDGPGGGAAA

Legend:
Assay in all cases: Radioligand Dose-Displacement Binding Assay
Settings in all cases: pH 7.4
[1] = target: Kappa-type opioid receptor (Homo sapiens, UniProt P41145)
[2] = target: Mu-type opioid receptor (Homo sapiens, UniProt P35372)
[3] = target: Delta-type opioid receptor (Homo sapiens, UniProt P41143)

SMILES	Ki [1]	Ki [2]	Ki [3]
CO[C@]12CC[C@@]3(C[C@@H]1COCc1cccc(F)c1)[C@H]1Cc4ccc(O)c5c4[C@@]3(CC[N+]1(C)CC1CC1)[C@H]2O5 (some centres undefined)	0.25 nM		
CO[C@]12CC[C@@]3(C[C@@H]1COCc1ccc(C)cc1)[C@H]1Cc4ccc(O)c5c4[C@@]3(CC[N+]1(C)CC1CC1)[C@H]2O5 (some centres undefined)	1.06 nM	1.36 nM	
CO[C@]12CC[C@@]3(C[C@@H]1COCc1cccc(Cl)c1)[C@H]1Cc4ccc(O)c5c4[C@@]3(CC[N+]1(C)CC1CC1)[C@H]2O5 (some centres undefined)	0.27 nM		
CO[C@]12CC[C@@]3(C[C@@H]1COCc1ccccc1F)[C@H]1Cc4ccc(O)c5c4[C@@]3(CC[N+]1(C)CC1CC1)[C@H]2O5 (some centres undefined)		4.51 nM	
CO[C@]12CC[C@@]3(C[C@@H]1COCc1cc4ccccc4s1)[C@H]1Cc4ccc(O)c5c4[C@@]3(CC[N+]1(C)CC1CC1)[C@H]2O5 (some centres undefined)	0.78 nM	2.29 nM	45.3 nM
CO[C@]12CC[C@@]3(C[C@@H]1COCc1cccc(C)c1)[C@H]1Cc4ccc(O)c5c4[C@@]3(CC[N+]1(C)CC1CC1)[C@H]2O5 (some centres undefined)	0.29 nM	4.3 nM	
CO[C@]12CC[C@@]3(C[C@@H]1COCc1ccc(F)cc1)[C@H]1Cc4ccc(O)c5c4[C@@]3(CC[N+]1(C)CC1CC1)[C@H]2O5 (some centres undefined)	0.26 nM	9.55 nM	
CO[C@]12CC[C@@]3(C[C@@H]1COCc1ccccc1)[C@H]1Cc4ccc(O)c5c4[C@@]3(CC[N+]1(C)CC1CC1)[C@H]2O5 (some centres undefined)	0.55 nM	2.11 nM	
